Drawing on patent publication US20080050363A1 (published 2008), this text covers Kd and IC50 for 1 molecule.

Amino acid sequences for entries named in this document (tags omitted). A change or cut given only in a name is not applied to a line headed by its entry.
UniProt P01210: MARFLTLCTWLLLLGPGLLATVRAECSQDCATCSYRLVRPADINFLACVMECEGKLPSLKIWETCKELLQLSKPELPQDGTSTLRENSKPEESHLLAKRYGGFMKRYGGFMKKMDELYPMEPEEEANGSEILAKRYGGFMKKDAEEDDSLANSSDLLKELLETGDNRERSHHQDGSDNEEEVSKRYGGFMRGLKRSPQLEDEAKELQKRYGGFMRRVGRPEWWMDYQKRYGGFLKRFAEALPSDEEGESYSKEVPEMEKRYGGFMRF

Assay [1] addresses T1, human OGF receptor (OGFr), native, in nuclear preparations of human cells and tissues (human, UniProt Q9NZT2 1-662, limits assumed).
T1 construct: Native receptor in nuclear homogenates (placenta, PANC-1, MIA PaCa-2, Capan-1, BxPC-3, pancreatic tissue, head and neck tissue); also called zeta opioid receptor; receptor for OGF
T1 chain: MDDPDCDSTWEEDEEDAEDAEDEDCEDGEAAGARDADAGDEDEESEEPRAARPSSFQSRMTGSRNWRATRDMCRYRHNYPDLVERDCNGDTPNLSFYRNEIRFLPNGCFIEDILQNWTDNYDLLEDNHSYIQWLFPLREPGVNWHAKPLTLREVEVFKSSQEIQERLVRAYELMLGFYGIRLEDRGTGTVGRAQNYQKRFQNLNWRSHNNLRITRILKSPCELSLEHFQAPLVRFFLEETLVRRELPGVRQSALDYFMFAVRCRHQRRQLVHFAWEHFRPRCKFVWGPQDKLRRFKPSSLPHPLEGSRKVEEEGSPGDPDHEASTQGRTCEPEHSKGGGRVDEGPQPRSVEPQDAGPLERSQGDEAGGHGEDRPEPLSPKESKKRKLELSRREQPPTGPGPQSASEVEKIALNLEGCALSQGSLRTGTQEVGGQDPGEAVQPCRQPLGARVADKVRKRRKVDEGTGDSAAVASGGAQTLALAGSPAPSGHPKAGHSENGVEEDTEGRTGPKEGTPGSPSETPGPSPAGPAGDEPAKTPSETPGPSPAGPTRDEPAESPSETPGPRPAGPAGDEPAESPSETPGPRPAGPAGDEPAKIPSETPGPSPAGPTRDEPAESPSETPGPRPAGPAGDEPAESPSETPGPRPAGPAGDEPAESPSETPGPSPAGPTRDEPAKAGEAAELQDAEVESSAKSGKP
Nature of the assay: saturation binding, confluent PANC-1 cells.

The target of assay [2] is T1, human OGF receptor (OGFr), native, in …. Kind of assay: saturation binding, PANC-1 cells in log phase.
The target is the same in assay [3]. Kind of assay: saturation binding, post-confluent PANC-1 cells.
Assay [4] has the same target. Nature of the assay: saturation binding, xenografts of Capan-1 grown in nude mice.
For assay [5] the target is unchanged. Kind of assay: radioligand binding, nuclear preparations of normal human mucosa.
Assay [6] shares this target. Kind of assay: unlabeled peptide competing with [3H]-[Met5]-enkephalin, PANC-1 nuclear homogenates.
Assay [7] shares this target. Nature of the assay: radioligand binding, nuclear preparations of human head and neck squamous cell carcinoma.
For assay [8] the target is unchanged. Kind of assay: saturation binding, nuclear (P1) fraction of PANC-1 cells, subcellular fractionation study.

B1: [Met^5]-enkephalin (opioid growth factor) (peptide, UniProt P01210 100-104, looked up)
peptide: YGGFM
modifications: tritium label ([^3H]) on the radioligand; the unlabeled peptide is used as competitor
notes: domain: [Met^5]-enkephalin; only the pentapeptide stood in the assay; also called OGF; [^3H]-[Met^5]-enkephalin
Regarding B1, the dissociation constant (Kd) (usually the concentration at which binding is half-saturated) amounted to 5.3 nM in assay [1]; 4.2 nM in assay [2]; 13.1 nM in assay [3]; 2.9 nM in assay [4]; 11.6 nM in assay [5]; 4.1 nM in assay [7]. In addition, in assay [8], binding was put at a Kd of 2.3 nM. In assay [6], the IC50 (in general, the concentration at which inhibition is half-maximal) worked out at 5.5 nM.
